Laboratory results taken from patent US20100227876A1 (priority 2009, published 2010).

Experiments:
[1] = system: Male Sprague-Dawley adult rats; experiment: Place conditioning (place preference/aversion) in a black-white shuttle-box
[2] = system: male Sprague-Dawley rats; experiment: Colorectal distension assay (CRD), visceral pain model, nociceptive threshold; assay type: in vivo, rat; conditions: for ED50 (M.P.E.=50%): at peak effect post-injection

Structure (SMILES)	percent of time spent in drug-associated compartment (score) ([1]; HDS1: high-dose spiradoline 1.2 mg/kg SC, first test, Group D, Test 1)	percent of time spent in drug-associated compartment (score) ([1]; HDS2: high-dose spiradoline 1.2 mg/kg SC, second test, Group D, Test 4)	percent of time spent in drug-associated compartment (score) ([1]; LDS1: low-dose spiradoline 0.3 mg/kg SC, first test, Group D, Test 2)	percent of time spent in drug-associated compartment (score) ([1]; LDS2: low-dose spiradoline 0.3 mg/kg SC, second test, Group C, Test 3)	percent of time spent in drug-associated compartment (score) ([1]; MDS1: medium-dose spiradoline 0.6 mg/kg SC, first test, Group D, Test 3)	percent of time spent in drug-associated compartment (score) ([1]; MDS2: medium-dose spiradoline 0.6 mg/kg SC, second test, Group C, Test 4)	duration of antinociception ([2]; CRD, rat, SC)	peak effect, time post injection ([2]; CRD, rat, SC)	ED50 (M.P.E.=50%) ([2]; CRD, rat, SC)	change of analgesic effect (M.P.E.) after n-BNI pretreatment compared to saline pretreatment ([2]; n-BNI 10 mg/kg SC 48 hrs before, 15 (and 30) minutes post-injection)
CN(C(=O)Cc1ccc(Cl)c(Cl)c1)C1CCC2(CCCO2)CC1N1CCCC1 (stereo not drawn)	34.67%	29.10%	45.28%	44.03%	39.58%	38.38%	2 h	15 min	0.56 mg/kg	neither fentanyl nor spiradoline single-dose ANC was significantly altered
CN(C(=O)Cc1cccc2occc12)[C@H]1CC[C@@]2(CCCO2)C[C@@H]1N1CCCC1	–	–	–	–	–	–	–	30 min	0.077 (0.04-0.2) mg/kg and 0.077 mg/kg	–

Values joined by “and” are separate entries in the source; they are usually repeats but may differ in a detail not shown here. Equal values may be shown once.
